# scFv variants of Ab-14 (light chain) against a SARS-CoV-2 spike peptide

All variants were tested on one target, the spike HR2 peptide PDVDLGDISGINAS (SARS-CoV-2).

Parent: Ab-14, a human scFv built as VH, a (GGGGS)3 linker, VL. Only the CDRs of the light chain vary.
VH: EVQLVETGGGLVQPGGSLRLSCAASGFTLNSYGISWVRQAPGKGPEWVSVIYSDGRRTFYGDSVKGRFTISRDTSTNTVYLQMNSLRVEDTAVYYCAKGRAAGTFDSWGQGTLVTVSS
VL: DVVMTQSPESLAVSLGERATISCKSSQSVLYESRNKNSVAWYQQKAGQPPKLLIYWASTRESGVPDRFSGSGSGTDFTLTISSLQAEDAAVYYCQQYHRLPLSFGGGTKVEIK

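The parent was found by panning a naive human phage display library on the peptide. Library AAYL50 holds single substitutions and randomly drawn double and triple substitutions in the CDRs. The scFvs were displayed on barcoded MATa yeast, the peptide on MATalpha yeast. Mating (16 h, 30 °C) was followed by selection of diploids and sequencing of their barcodes. The ratio of observed to expected reads was calibrated, replicate by replicate, on BCL2-family standards whose Kd was known from biolayer interferometry. Each pool was mated in three replicate cultures.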

Variants are written as CDR1, CDR2 and CDR3 of the light chain (limits as in the source). Parent: KSSQSVLYESRNKNSVA, WASTRES, QQYHRLPLS.
Affinities are written as log10 Kd with Kd in nM; a lower number is a better binder.
Replicates are averaged; those with no signal do not enter the mean.
Where no diploid with the target was found in that replicate, the entry reads "n.d.": below detection, most likely a poor binder, though not proof of it.
Nonspecific signal, from three strains lacking the peptide, appeared in 18% of pairings of library AAYL50, centred on 4.19 (5% of these signals below 2.99); values are not corrected for it. For each scFv, signals with the empty controls are counted beside the result, with their mean in brackets.
In this assay the parent's reference entry averaged 0.65; its copy inside this library read 1.68.

| # | CDR-L1 | CDR-L2 | CDR-L3 | replicates, log10 nM | mean, log10 nM | signal with controls |
|---|---|---|---|---|---|---|
| 1 | KSSQSVLYESRNKNSVW | WASTRES | QQTHRQPLS | n.d. / 5.03 / 4.10 | 4.56 | 1/9 (2.98) |
| 2 | TSSQSVLYESRNKNSVP | WASTRES | QQDHRLPLS | n.d. / 3.92 / 5.03 | 4.47 | 4/9 (4.51) |
| 3 | KSSQSVLYESRLKNSVA | WASTAES | QQYHRSPLS | 4.89 / n.d. / n.d. | 4.89 | 5/9 (4.55) |
| 4 | KSSQSVVYESFNKNSVA | WASTRES | QQYHRMPLS | 3.48 / 3.19 / 4.07 | 3.58 | 1/9 (2.87) |
| 5 | KSSQLVLYESRNKNSVA | WASTRNS | QQYHDLPLS | 4.40 / 2.66 / 2.93 | 3.33 | 2/9 (3.62) |
| 6 | KSSQSVLCESRNKNSVA | WASTRES | QQYHRMPLS | 1.89 / 1.50 / 1.96 | 1.78 | 0/9 |
| 7 | KSSQSVLYESRNKNSVA | WASTNES | NQYHRLPLS | n.d. / n.d. / n.d. | n.d. | 4/9 (4.50) |
| 8 | KFSQYVLYESRNKNSVA | WESTRES | QQYHRLPLS | 2.83 / 2.09 / 3.42 | 2.78 | 2/9 (3.84) |
| 9 | KWSQSVLYESRNKNSVA | WASTPES | QQYHRCPLS | 4.13 / 4.01 / 5.60 | 4.58 | 6/9 (4.56) |
| 10 | KSSQRHLYESKNKNSVA | WASTRES | QQYHRLPLS | 2.19 / 2.27 / 2.53 | 2.33 | 2/9 (4.04) |
| 11 | KWSQSVLYESRNKNSHA | WASTRES | WQYHRLPLS | n.d. / n.d. / n.d. | n.d. | 1/9 (4.24) |
| 12 | KQSQSVLYESRNKNSVA | KASFRES | QQYHRLPLS | 1.94 / 1.61 / 1.85 | 1.80 | 2/9 (3.54) |
| 13 | KSSQSVLYESRNKNSVA | WASTRMS | QQYHRLPLS | 0.61 / 1.07 / 0.97 | 0.88 | 3/9 (4.32) |
| 14 | KSSQSVLYECRNKNSVA | WASTRHS | QQYHRLPAS | n.d. / n.d. / n.d. | n.d. | 0/9 |
| 15 | KSSQSVLYESRNKESVA | WASTRES | QQYHTCPLS | 0.86 / 1.06 / 1.01 | 0.98 | 2/9 (3.40) |
| 16 | KSSQSVLLESRNKNSVA | WASHRES | QQYHRLPLS | 1.75 / 2.69 / n.d. | 2.22 | 0/9 |
| 17 | KSSQSVLYESRNKNSVA | WASTREL | QQIHRLPLS | 2.62 / 2.34 / 2.58 | 2.51 | 7/9 (5.01) |
| 18 | LSSQSVLYESRNKQSLA | WASTRES | QQYHRLPLS | n.d. / n.d. / n.d. | n.d. | 1/9 (3.09) |
| 19 | KISQSVLYESRNKISVA | WASTRES | QQYHRLPLV | 0.63 / 0.98 / 0.85 | 0.82 | 0/9 |
| 20 | KMSQSVLIESRNKNSVA | WASTRES | QQYHRCPLS | n.d. / n.d. / n.d. | n.d. | 0/9 |
| 21 | KLSQSVLVESRNKNSVA | WASTRES | QQYHCLPLS | 1.11 / 1.27 / 1.18 | 1.19 | 1/9 (3.90) |
| 22 | KSSQSVLYESRNKNVVA | WASTRES | QQTARLPLS | n.d. / n.d. / n.d. | n.d. | 3/9 (3.84) |
| 23 | KSSQSVLYEWRNKNSVA | IASTRES | QQYHRLPLF | n.d. / n.d. / n.d. | n.d. | 2/9 (3.84) |
| 24 | KSVQSVLYESRNKNSVA | WASTRES | QQYHRKPMS | 2.68 / 3.14 / 2.95 | 2.93 | 3/9 (4.58) |
| 25 | KSSQSVLYESRNKNSVA | WASRRES | WQYVRLPLS | n.d. / 4.18 / n.d. | 4.18 | 1/9 (4.55) |
| 26 | KHSQSVLYTSRNKNHVA | WASTRES | QQYHRLPLS | 2.57 / 2.52 / 3.00 | 2.70 | 1/9 (3.75) |
| 27 | KSSQMVLYESRNKNNVA | WASTRES | QQYHPLPLS | n.d. / n.d. / n.d. | n.d. | 1/9 (3.07) |
| 28 | KSSISVLYESRNKNSVA | WASTRES | QQYHRLPLS | 2.91 / 2.45 / 3.08 | 2.82 | 5/9 (4.78) |
| 29 | KSSQSVLYQSRNKNSVA | WAVTRES | QQYHVLPLS | 1.89 / 1.90 / 1.81 | 1.87 | 1/9 (3.73) |
| 30 | KSFSSVLYESRKKNSVA | WASTRES | QQYHRLPLS | n.d. / n.d. / n.d. | n.d. | 0/9 |
| 31 | KSGQSVQYESRNKNSVA | WRSTRES | QQYHRLPLS | 3.22 / 3.05 / 3.24 | 3.17 | 1/9 (4.58) |
| 32 | KSMQSVLYESRAKNSVA | WASTRES | HQYHRLPLS | n.d. / n.d. / n.d. | n.d. | 1/9 (2.43) |
| 33 | KSSQSVLYESRNKNSVA | WASTEES | RAYHRLPLS | n.d. / 2.86 / n.d. | 2.86 | 2/9 (3.22) |
| 34 | QSSQSVLYENRNHNSVA | WASTRES | QQYHRLPLS | 1.20 / 1.09 / 1.21 | 1.17 | 0/9 |
| 35 | ESNQSVLYESRAKNSVA | WASTRES | QQYHRLPLS | n.d. / n.d. / 5.40 | 5.40 | 3/9 (3.64) |
| 36 | KSSQSVLYESRNKNSVA | WASTRMD | QQYHRLPLV | n.d. / n.d. / n.d. | n.d. | 0/9 |
| 37 | KSSQSVLYESRWKNPVA | KASTRES | QQYHRLPLS | 2.97 / 2.10 / 2.56 | 2.54 | 1/9 (2.41) |
| 38 | KSYQSVLYESRNKNSIA | GASTRES | QQYHRLPLS | n.d. / n.d. / n.d. | n.d. | 0/9 |
| 39 | KSSQSVLYESRNKNSVA | WASTRES | HQYHGQPLS | n.d. / 4.54 / n.d. | 4.54 | 2/9 (4.86) |
| 40 | KSSQSVLYESINWNSVA | WASTRES | QQYHHLPLS | 1.10 / 1.16 / 1.05 | 1.10 | 1/9 (4.15) |

The 6 strongest on average among those seen in every replicate, once more:

{"CDR-L1": "KISQSVLYESRNKISVA", "CDR-L2": "WASTRES", "CDR-L3": "QQYHRLPLV", "replicates, log10 nM": "0.63 / 0.98 / 0.85", "mean, log10 nM": "0.82", "signal with controls": "0/9"}
{"CDR-L1": "KSSQSVLYESRNKNSVA", "CDR-L2": "WASTRMS", "CDR-L3": "QQYHRLPLS", "replicates, log10 nM": "0.61 / 1.07 / 0.97", "mean, log10 nM": "0.88", "signal with controls": "3/9 (4.32)"}
{"CDR-L1": "KSSQSVLYESRNKESVA", "CDR-L2": "WASTRES", "CDR-L3": "QQYHTCPLS", "replicates, log10 nM": "0.86 / 1.06 / 1.01", "mean, log10 nM": "0.98", "signal with controls": "2/9 (3.40)"}
{"CDR-L1": "KSSQSVLYESINWNSVA", "CDR-L2": "WASTRES", "CDR-L3": "QQYHHLPLS", "replicates, log10 nM": "1.10 / 1.16 / 1.05", "mean, log10 nM": "1.10", "signal with controls": "1/9 (4.15)"}
{"CDR-L1": "QSSQSVLYENRNHNSVA", "CDR-L2": "WASTRES", "CDR-L3": "QQYHRLPLS", "replicates, log10 nM": "1.20 / 1.09 / 1.21", "mean, log10 nM": "1.17", "signal with controls": "0/9"}
{"CDR-L1": "KLSQSVLVESRNKNSVA", "CDR-L2": "WASTRES", "CDR-L3": "QQYHCLPLS", "replicates, log10 nM": "1.11 / 1.27 / 1.18", "mean, log10 nM": "1.19", "signal with controls": "1/9 (3.90)"}

From the AlphaSeq antibody data of Engelhart et al. 2022 (doi:10.1038/s41597-022-01779-4), copy in the FLAb collection.